Reference: ChEMBL document CHEMBL1129250, “Interaction of 1,4-dihydropyridine and pyridine derivatives with adenosine receptors: selectivity for A3 receptors” (J Med Chem, 1996)

Protein sequences, listed by entry. Tags and fused reporters are not part of them. Lines headed by an entry give the natural chain unless they say otherwise; changes in a name come on top.
UniProt P30543, whole entry: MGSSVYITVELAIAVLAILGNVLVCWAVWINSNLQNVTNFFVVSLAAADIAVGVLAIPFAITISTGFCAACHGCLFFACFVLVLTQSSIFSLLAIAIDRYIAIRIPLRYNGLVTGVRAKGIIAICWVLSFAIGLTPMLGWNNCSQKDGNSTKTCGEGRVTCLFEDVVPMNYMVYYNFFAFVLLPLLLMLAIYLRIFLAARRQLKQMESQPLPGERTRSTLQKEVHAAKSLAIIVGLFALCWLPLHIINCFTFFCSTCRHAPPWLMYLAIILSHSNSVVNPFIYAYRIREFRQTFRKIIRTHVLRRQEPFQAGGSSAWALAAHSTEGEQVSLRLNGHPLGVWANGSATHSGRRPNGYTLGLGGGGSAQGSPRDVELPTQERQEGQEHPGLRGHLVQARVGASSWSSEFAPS
UniProt P22002: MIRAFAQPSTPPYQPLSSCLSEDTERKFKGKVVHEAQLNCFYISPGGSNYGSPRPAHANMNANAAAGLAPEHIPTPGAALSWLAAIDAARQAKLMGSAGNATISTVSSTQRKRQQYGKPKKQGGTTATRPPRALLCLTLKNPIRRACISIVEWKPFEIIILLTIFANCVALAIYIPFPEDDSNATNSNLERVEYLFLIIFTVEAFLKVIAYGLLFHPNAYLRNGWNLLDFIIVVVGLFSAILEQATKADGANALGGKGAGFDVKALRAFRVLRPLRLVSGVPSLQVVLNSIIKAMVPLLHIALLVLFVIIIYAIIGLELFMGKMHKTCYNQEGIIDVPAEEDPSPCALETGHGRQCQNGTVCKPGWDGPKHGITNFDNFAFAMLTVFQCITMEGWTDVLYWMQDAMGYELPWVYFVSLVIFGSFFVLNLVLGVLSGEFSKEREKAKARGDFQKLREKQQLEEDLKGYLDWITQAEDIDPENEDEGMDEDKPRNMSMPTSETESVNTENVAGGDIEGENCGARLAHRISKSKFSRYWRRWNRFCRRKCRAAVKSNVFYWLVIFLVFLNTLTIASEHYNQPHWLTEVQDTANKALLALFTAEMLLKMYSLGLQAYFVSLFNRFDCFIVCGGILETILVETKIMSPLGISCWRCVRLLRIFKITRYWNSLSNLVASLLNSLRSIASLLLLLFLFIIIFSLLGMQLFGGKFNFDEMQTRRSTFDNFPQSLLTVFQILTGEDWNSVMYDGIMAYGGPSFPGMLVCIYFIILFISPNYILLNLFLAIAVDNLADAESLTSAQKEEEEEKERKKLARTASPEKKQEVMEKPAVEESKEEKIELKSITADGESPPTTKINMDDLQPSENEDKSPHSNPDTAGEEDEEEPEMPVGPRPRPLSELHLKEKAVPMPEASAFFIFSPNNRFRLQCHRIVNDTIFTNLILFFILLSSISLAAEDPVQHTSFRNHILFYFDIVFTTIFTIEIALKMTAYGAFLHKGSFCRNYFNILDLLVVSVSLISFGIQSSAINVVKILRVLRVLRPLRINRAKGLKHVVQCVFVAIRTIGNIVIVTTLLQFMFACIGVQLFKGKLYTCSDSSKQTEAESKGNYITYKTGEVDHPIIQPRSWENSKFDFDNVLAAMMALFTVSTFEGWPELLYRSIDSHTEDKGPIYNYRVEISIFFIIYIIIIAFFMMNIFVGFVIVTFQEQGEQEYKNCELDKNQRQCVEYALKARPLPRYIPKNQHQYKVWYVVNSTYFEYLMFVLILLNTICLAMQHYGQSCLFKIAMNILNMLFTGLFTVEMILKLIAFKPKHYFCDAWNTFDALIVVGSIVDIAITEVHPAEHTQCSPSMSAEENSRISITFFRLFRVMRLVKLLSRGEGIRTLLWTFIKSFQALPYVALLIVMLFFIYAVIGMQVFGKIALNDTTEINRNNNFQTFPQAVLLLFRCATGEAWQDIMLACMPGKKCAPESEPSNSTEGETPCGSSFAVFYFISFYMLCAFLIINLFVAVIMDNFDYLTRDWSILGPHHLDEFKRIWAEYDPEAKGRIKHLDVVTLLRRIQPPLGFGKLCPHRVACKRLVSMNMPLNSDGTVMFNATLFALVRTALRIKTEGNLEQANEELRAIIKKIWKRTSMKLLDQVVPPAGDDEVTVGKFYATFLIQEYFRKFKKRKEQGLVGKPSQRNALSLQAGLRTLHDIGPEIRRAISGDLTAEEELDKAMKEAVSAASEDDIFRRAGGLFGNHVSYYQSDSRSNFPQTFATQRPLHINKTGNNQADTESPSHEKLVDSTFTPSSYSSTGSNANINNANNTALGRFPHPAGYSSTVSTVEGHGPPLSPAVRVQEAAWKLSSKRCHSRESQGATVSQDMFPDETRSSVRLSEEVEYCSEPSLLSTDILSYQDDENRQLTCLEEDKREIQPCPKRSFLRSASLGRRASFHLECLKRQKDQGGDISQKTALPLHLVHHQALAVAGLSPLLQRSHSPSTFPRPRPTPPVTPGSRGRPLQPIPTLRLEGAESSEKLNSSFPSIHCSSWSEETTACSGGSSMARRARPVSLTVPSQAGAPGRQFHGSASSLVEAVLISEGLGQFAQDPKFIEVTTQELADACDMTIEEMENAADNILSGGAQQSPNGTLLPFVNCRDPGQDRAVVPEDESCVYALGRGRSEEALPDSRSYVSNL
UniProt P27732: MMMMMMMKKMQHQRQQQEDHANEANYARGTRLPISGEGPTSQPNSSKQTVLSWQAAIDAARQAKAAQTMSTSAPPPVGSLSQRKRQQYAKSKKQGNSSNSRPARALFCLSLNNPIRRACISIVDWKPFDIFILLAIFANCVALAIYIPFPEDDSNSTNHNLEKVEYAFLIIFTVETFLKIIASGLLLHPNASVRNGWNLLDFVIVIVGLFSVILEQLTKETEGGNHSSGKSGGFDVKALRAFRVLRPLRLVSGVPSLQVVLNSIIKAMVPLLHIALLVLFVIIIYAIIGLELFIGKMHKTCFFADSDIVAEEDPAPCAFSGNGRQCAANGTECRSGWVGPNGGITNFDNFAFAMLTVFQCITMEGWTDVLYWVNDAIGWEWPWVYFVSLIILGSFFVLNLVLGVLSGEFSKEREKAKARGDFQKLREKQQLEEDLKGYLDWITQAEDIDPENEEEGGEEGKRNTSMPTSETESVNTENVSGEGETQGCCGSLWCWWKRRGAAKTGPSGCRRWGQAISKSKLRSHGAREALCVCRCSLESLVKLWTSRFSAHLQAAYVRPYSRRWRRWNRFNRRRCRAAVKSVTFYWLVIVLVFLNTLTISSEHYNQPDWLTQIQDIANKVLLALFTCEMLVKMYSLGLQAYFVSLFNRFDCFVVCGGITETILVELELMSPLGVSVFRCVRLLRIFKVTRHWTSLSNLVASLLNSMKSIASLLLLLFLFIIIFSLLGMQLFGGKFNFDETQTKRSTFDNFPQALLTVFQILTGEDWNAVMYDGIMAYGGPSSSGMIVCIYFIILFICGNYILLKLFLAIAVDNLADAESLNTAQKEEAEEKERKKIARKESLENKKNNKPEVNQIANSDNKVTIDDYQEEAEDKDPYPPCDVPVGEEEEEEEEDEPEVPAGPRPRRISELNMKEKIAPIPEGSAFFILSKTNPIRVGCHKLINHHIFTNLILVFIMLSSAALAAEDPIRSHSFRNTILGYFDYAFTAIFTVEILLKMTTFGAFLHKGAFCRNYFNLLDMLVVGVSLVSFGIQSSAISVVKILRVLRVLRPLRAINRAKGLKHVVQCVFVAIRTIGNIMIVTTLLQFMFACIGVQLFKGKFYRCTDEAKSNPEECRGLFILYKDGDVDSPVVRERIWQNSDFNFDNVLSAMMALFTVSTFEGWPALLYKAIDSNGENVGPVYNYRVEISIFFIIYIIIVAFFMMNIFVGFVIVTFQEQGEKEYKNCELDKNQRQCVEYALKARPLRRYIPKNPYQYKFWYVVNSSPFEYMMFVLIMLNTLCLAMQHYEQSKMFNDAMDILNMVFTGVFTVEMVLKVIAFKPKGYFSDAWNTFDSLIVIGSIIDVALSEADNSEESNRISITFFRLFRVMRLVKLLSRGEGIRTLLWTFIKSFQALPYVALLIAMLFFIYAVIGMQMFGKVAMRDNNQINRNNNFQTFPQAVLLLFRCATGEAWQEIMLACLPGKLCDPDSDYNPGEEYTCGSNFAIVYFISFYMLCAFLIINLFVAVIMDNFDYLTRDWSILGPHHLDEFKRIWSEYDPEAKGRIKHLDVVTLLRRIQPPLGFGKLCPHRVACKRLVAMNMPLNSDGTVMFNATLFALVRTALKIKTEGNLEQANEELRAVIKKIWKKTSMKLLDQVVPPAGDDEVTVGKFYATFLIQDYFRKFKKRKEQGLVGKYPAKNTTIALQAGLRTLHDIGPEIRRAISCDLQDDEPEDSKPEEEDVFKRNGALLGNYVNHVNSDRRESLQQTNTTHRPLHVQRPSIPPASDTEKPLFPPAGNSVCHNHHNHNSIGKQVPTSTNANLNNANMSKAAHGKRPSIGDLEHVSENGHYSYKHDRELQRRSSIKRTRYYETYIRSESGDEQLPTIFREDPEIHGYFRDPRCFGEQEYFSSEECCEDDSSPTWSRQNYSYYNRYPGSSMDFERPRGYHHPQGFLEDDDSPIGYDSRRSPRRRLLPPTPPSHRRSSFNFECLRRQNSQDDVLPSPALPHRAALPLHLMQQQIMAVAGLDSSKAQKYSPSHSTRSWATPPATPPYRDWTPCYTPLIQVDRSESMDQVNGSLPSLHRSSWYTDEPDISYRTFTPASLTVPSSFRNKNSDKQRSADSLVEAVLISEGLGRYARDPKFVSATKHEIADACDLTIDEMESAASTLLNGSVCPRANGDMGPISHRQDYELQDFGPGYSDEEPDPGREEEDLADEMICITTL

Assays:
[1] = target: Adenosine receptor A2a (Rattus norvegicus, UniProt P30543); assay: Displacement of [3H]-CGS- 21680 binding to Adenosine A2A receptor in rat striatal membranes; format: cell membranes, Membrane
[2] = target: Voltage-gated L-type calcium channel (Rattus norvegicus, UniProt P22002+Q02485+P27732); assay: Inhibition of [3H]-isradipine binding to L-type [Ca2+] channel of rat brain membranes; format: cell membranes, Membrane

Ki [1]	Ki [2]	Compound
35.1 µM	–	CO/C(O)=C1\C(C)=NC(C)=C([N+](=O)[O-])[C@@H]1c1ccccc1C(F)(F)F
86.3 µM	–	CO/C(O)=C1\C(C)=NC(C)=C([N+](=O)[O-])[C@H]1c1ccccc1C(F)(F)F
–	0.0597 µM	COC(=O)C1=C(C)NC(C)=C(C(=O)OCCCN2CCC(c3ccccc3)(c3ccccc3)CC2)[C@@H]1c1cccc([N+](=O)[O-])c1 [DEXNIGULDIPINE]
